The results in this text go back to patent EP1935887A1, “Heterocyclic substituted carbonyl derivatives and their use as dopamine D3 receptor ligands” (Aventis Pharmaceuticals Inc., priority 2001, dated 2002).

Protein sequences, listed by entry. Tags and fused reporters are not part of them.
UniProt P35462, whole entry: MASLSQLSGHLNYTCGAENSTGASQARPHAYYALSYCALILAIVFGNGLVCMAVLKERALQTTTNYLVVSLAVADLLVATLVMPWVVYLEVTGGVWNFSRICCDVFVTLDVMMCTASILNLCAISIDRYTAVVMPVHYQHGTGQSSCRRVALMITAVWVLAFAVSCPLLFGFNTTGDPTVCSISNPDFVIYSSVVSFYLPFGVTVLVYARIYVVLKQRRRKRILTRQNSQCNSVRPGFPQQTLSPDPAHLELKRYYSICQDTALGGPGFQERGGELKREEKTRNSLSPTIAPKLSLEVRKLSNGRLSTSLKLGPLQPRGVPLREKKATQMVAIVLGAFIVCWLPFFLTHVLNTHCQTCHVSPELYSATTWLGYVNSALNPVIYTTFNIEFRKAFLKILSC

SMILES strings stand for the structures. pKi: −log10 of the molar value.

One assay concerns the target Cloned Human Dopamine D3 Receptors (Homo sapiens, UniProt P35462). As to the kind of experiment: [N-Methyl-3H]Spiroperidol binding to cloned human dopamine D3 receptors. The settings on record: read-out: D3 Ki. The source says: [N-Methyl-^3H]Spiroperidol Binding to Cloned Human Dopamine D3 Receptors
This assay measures the in vitro activity of compounds on cloned human dopamine (D3) receptors and predicts the direct dopamine-blocking properties of putative neuropsychiatric agents at human dopamine D3 receptors.
The D3 gene was isolated from a human striatal cDNA library (Stratagene). The gene was sequenced and sub-cloned into the expression vector RC/RSV (Invitrogen). CHO (Chinese Hamster Ovary) cells were stably transfected with 10 µg of the D3/RSV plasmid using the DOTAP method from Boehringer Mannheim and 72 clones that were G418 resistant were isolated. Using mRNA and binding displacement data a single high expressing clone was identified. This clone was then grown in large batches for the purpose of developing a 96 well format assay.
• 1. One plate (10 cm) with approximately 2-3 million D3 cells per plate is incubated with 1 ml of Trypsin-EDTA at room temperature for -2 min or until cells have lifted off plates. Four ml of Ham's F12 + 10% Fetal Bovine Serum + 1% Penicillin/Streptomycin + G418 (400 µg/ml) medium are added to resuspend cells and 1 ml of this is added to each large plate (15 cm) containing 19 ml of the same medium as mentioned above. • 2. The 5 large plates are incubated at 37°C + 5% CO2 for - 3 days or until the cells are confluent. • 3. After these plates are confluent, they are split into 10 large plates. Medium is aspirated off, 2 ml of Trypsin-EDTA are added to each plate and plates are incubated at RT for 2 min or until cells have lifted off the plate. Eight ml of the F12 medium (same medium as #1 above) are added to each plate (10 ml total) to resuspend the cells and 5 ml are transferred to the 2 new plates containing 15 ml of the F12 media. • 4. The 10 large plates are incubated at 37°C + 5% CO2 for ∼ 2 days or until the cells are confluent. • 5. The 10 large plates are split into 60 large plates (using Trypsin-EDTA as #3 except 4 ml of F12 medium are added to resuspend cells and 1 ml is aliquoted to 6 new plates containing 19 ml of F12 medium each). • 6. Plates are incubated at 37°C + 5% CO2 for - 3 days or until cell are confluent. • 7. The 60 large plates are then split into 60 roller bottles (100-150 million cells/bottle). Medium is aspirated off , 2 ml of Trypsin-EDTA are added to each plate and incubated at RT for -2 minutes or until cells have lifted off plates. Eight ml of F12 medium are added to each plate to resuspend cells and the entire 10 ml are added to 1 roller bottle containing 90 ml of the F12 medium. • 8. The 60 roller bottles are immediately placed on their sides and transferred to the roller bottle incubator. They are incubated at 37°C + 5% CO2 for ~ 3-5 days. Cells are spun at 30-40% motor speed in the Forma incubator. • 9. Medium is poured off and cells are washed 2X in PBS. • 10. Cells are then scraped off in 20 ml of PBS and the bottles are rinsed again with 5 ml of PBS to remove any remaining cells. Cells are stored on ice before membrane prepration. • 11. The yield for 60 D3 roller bottles has varied from - 260-500 mg. Note: All tissue culture reagents are from Gibco-BRL.
The cells are harvested into 250 ml centrifuge tubes with 100 volumes of cold phosphate buffered saline (PBS) and spun down (1200xG for 10 min at 4°C). The medium is removed and 100 ml PBS are added to each centrifuge tube, cells are resuspened and spun down again. The PBS is removed and the final pellet is homogenized in an appropriate volume of 10% DMSO with a polytron on ice at a medium setting.
A 200 µl sample membrane homogenate is added to 200 µl of 1% SDS, vortexed and allowed to stand for 5 min. Aliquots (25, 50 and 100 µl) of this mixture are assayed in duplicate following the standard Bio-Rad DC protein assay protocol (kit catalog number 500-0112) and using reagent S. Absorbance readings are made at 750 nm (note: the most accurate protein OD readings are between 0.1-0.5 units). […]
As to `Cc1csc2c(C3CCN(C[C@@H]4C[C@H]4C(=O)NCCCn4ccnc4)CC3)noc12`, the pKi was 8.01.
Turning to `O=C(NC1CCN(CC2CCCCC2)CC1)[C@@H]1C[C@H]1CN1CCN(c2csc3cc(C(F)(F)F)ccc23)CC1`, the pKi was 8.24.
The same measure, in the same setting: next, `CC[C@H]1CC[C@H](NC(=O)[C@@H]2C[C@H]2CN2CCN(c3csc4cc(C(F)(F)F)ccc34)CC2)CC1`: 7.91.

Still in this assay, the particulars now being: read-out: d3Ki.
Consider `CC[C@H]1CC[C@H](NC(=O)[C@@H]2C[C@H]2CN2CCN(c3c(C)cccc3C)CC2)CC1` (relative stereo), for which the pKi was 7.04.
Same read-out and setting: next, `COc1ccc(CNC(=O)[C@@H]2CCCC[C@@H]2CN2CCN(c3csc4cc(C(F)(F)F)ccc34)CC2)c(OC)c1` (relative stereo): 6.88; `C[C@H]1CC[C@H](NC(=O)[C@@H]2C[C@H]2CN2CCCN(c3csc4cc(C(F)(F)F)ccc34)CC2)CC1` (relative stereo): 7.82.
With `CC[C@H]1CC[C@H](NC(=O)[C@@H]2C[C@H]2CN2CCN(c3ncccc3C(F)(F)F)CC2)CC1` (relative stereo), the pKi was 8.68.

Staying with this assay, now noted: read-out: d3Ki; Table 2; unit inferred.
In the case of `C[C@H]1CC[C@H](NC(=O)[C@@H]2C[C@H]2CN2CCN(c3noc4ccsc34)CC2)CC1`, the pKi is 8.26.
As for `C[C@@]1(C(=O)NC2CCCCC2)C[C@H]1CN1CCN(c2csc3cc(C(F)(F)F)ccc23)CC1` (relative stereo), the pKi is 6.85.
Take `CC[C@H]1CC[C@H](NC(=O)[C@H]2C[C@@H]2CN2CCN(c3noc4ccsc34)CC2)CC1`: the pKi is 6.90.
The same measure, in the same setting: to `CN(C(=O)CCCN1CCCN(c2csc3cc(F)ccc23)CC1)C1CCCCC1` belongs 7.84; to `CC[C@H]1CC[C@H](NC(=O)[C@@H]2C[C@H]2CN2CCN(c3ccccc3C)CC2)CC1`, 8.24; to `CC1[C@@H](CN2CCN(c3csc4cc(C(F)(F)F)ccc34)CC2)[C@@H]1C(=O)NC1CC1` (relative stereo), 7.00.
Still for that read-out and setting: to `CC[C@H]1CC[C@H](NC(=O)[C@@H]2C[C@H]2CN2CCN(c3cccc4cccnc34)CC2)CC1` (relative stereo) belongs 8.06; to `O=C(CCCN1CCCN(c2csc3cc(F)ccc23)CC1)NC1CCCC1` [compound 826840], 7.66; to `C[C@H]1CC[C@H](NC(=O)CCCN2CCN(c3csc4cc(F)ccc34)CC2Cc2ccccc2)CC1` (stereo partly shown), 6.90.

The assay is the same for the next values; noted with them: read-out: d3Ki; Table 2; unit inferred; tested form: HCl.
Consider `CN(C(=O)CCCCN1CCN(c2csc3cc(F)ccc23)CC1)c1ccc(F)cc1`, for which the pKi is 7.74.

Staying with this assay, now noted: read-out: d3Ki; Table 2 part the 10th table.
As for `CC1[C@@H](CN2CCN(c3csc4cc(C(F)(F)F)ccc34)CC2)[C@@H]1C(=O)N1CCCCC1` (relative stereo), the pKi was 7.89.
Same read-out and setting: to `CC1(C)CCCN(C(=O)CCCN2CCN(c3csc4cc(F)ccc34)CC2)C1` belongs 9.09.
Same read-out and setting: to `CC1CCCCN1C(=O)CCCN1CCN(c2csc3cc(C(F)(F)F)ccc23)CC1Cc1ccccc1` (stereo not shown) belongs 6.61; to `CCOC(=O)C1CCN(C(=O)CCCN2CCN(c3csc4cc(F)ccc34)CC2Cc2ccccc2)CC1` (stereo not shown), 6.50; to `O=C([C@@H]1C[C@H]1CN1CCCN(c2csc3cc(F)ccc23)CC1)N1CCC(O)CC1` (relative stereo), 8.44.
